Experimental data published in patent US6607906B1, “Heterologous G protein coupled receptors expressed in yeast, their fusion with G proteins and use thereof in bioassay” (priority 1994, dated 2003).

Chains of the proteins cited; added tags and fusions are not shown.
UniProt P30543, whole entry: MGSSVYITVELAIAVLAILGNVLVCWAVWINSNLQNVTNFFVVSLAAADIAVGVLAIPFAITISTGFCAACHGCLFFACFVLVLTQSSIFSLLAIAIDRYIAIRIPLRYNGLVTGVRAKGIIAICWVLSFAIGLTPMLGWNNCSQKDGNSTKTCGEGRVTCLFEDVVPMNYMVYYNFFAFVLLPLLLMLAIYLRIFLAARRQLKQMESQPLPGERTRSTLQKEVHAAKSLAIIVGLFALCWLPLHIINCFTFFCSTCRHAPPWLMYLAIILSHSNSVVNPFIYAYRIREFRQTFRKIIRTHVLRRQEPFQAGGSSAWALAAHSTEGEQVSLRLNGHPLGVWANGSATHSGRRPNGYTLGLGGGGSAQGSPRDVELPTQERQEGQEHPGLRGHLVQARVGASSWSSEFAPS

Target: rat A2a-adenosine receptor (Rattus norvegicus, UniProt P30543)
Assay: Agar plate growth bioassay, yeast expressing A2a-adenosine receptor (LY595)

met-enkephalin: an opiate receptor agonist
growth response: not observed
